# Yeast mating assay B: variants of the scFv Ab-14

Reference: Li et al. 2023, doi:10.1038/s41467-023-39022-2. File: FLAb, binding data.

Binding partner: SARS-CoV-2 spike HR2 peptide, sequence PDVDLGDISGINAS.

The variants keep the heavy chain, the linker and the frameworks of Ab-14 (scFv order VH, a 15-residue (Gly4Ser)3 linker, VL).
VH: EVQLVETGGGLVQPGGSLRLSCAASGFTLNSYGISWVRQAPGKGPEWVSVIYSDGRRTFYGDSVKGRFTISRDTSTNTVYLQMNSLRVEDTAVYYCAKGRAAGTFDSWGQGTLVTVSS
VL: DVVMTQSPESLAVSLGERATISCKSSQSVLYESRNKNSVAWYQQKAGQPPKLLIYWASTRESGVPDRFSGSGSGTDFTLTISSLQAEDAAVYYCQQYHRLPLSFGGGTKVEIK

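These sequences belong to a second round, designed from the earlier measurements on random variants of the parent. Group labels follow the data file (Ctrl: baseline library sampled from a position-specific scoring matrix, with some repeated check sequences; En: ensemble of fine-tuned language models; GP: Gaussian process model; HC: hill climbing; Gen: genetic algorithm; Gibbs: Gibbs sampling; a sequence that several methods proposed may carry one label only). The scFvs were displayed on barcoded MATa yeast, the peptide on MATalpha yeast. Mating (16 h, 30 °C) was followed by selection of diploids and sequencing of their barcodes. Each replicate has its own calibration line, from reference interactions of the BCL2 family. There are six technical replicates.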

The parent's light chain CDRs are KSSQSVLYESRNKNSVA, WASTRES, QQYHRLPLS; each variant's own CDRs replace them letter for letter.
Values are apparent Kd, the geometric mean of the replicates that gave a signal; lower means stronger binding.
"nd" means that the variant was in the library but no mating with the target was seen in any replicate; the authors take this as a sign of poor binding, and no number exists.
The parent sequence was in this pool as ten entries: three were never detected, three once, and four in most replicates, with averages from 2.2 nM to 240 nM.

| Kd | seen in | CDR-L1 | CDR-L2 | CDR-L3 | group |
|---|---|---|---|---|---|
| 120 nM | 4/6 | KQSQSHLCESRNKNSVA | DASTRES | QQYHRLPLS | GP_HC |
| nd | 0/6 | KSSQSVLYESTNLNSVA | WAYTRES | QQYIRLPLS | Ctrl |
| 170 nM | 3/6 | MIQQGENRDSEHYNSIA | EGHERPI | QQYYTLPLV | En_Gibbs |
| 4.7 nM | 6/6 | HFSQETMEFMSQNKAIA | EVTTTMT | QQYARLPFI | En_Gibbs |
| nd | 0/6 | SLMNLMGGIEQMKNSIA | NLELGAR | QQYAHLPLV | En_Gibbs |
| 240 nM | 4/6 | KMTLPTGMWLNKANSIA | DASSVME | QQYYWLPLT | En_Gibbs |
| 720 pM | 6/6 | KMSQSVLMENRNKNSVA | DASLRES | QQYHRLPLS | GP_HC |
| 5.9 nM | 6/6 | KISQMTRVGSTHSNSIA | EEVTRAK | QQYHRLPLS | En_Gen |
| 430 pM | 6/6 | KLSQSCLYESRNKNSVA | NASTREQ | QQYHRLPLS | GP_Gen |
| 5.0 nM | 6/6 | KSSQSVLYESRNKNSVA | DASIRES | QQYHRLPLS | Ctrl |
| 2.8 nM | 6/6 | TLHANIQYGGIMWSSIA | DNVQRAN | QQYTRLPLS | En_Gibbs |
| 1.3 nM | 6/6 | KSSQSVLYESSYKNSVA | GASTRES | QQYHRLPLS | Ctrl |
| 3.9 nM | 6/6 | KWDQSVDGQSRNKNSVA | QASQREW | QQYHRLPLS | GP_Gibbs |
| 660 pM | 6/6 | KLQQSVQYESRNKNAVA | QASQRES | QQYHRLPLS | GP_Gibbs |
| 6.3 nM | 6/6 | KVNGLMNIEQMNSKSVA | QSSTRLN | QQYHRLPLS | En_HC |
| 600 pM | 6/6 | KLQQSVLYESRNKNSVA | NASTRES | QQYHRLPLM | GP_Gen |
| 680 pM | 6/6 | KAQQSNEYESRNKWSVA | NASTRED | QQYHRLPLS | GP_Gibbs |
| 130 nM | 4/6 | KLSGLMASSKFAKNNVA | ENNTRED | QQYDRLPLS | En_Gen |
| 2.0 nM | 6/6 | KLSQSWLYESRVKNSVA | NASQRES | QQYHRLPLS | GP_Gen |
| 3.6 nM | 6/6 | KITGMWTFEMHNRNNIA | EESTRED | QSYHRLPLS | En_HC |
| 400 nM | 2/6 | KQVTSVLYESRNKNSVA | WASVRES | QQYHRFPLS | Ctrl |
| 1.2 µM | 2/6 | KISMLTTFESRNKNSVA | ENSTRES | QSYHRLPLS | En_HC |
| 49 nM | 5/6 | ILSQSVLMGMHLKNSVA | QASTRFN | QQYHRLPLM | En_HC |
| 780 pM | 6/6 | KSQQSVLYESRNKNNVA | NASTRED | QQYARLPLS | GP_HC |
| 400 nM | 2/6 | MISQLMNMGTFAINSVA | QAEIRNM | QQYDRLPLT | En_Gen |
| 6.8 nM | 6/6 | KSSESVLYESRNKNSVA | NAKTRES | QQYHILPLS | Ctrl |
| nd | 0/6 | KSPQSMMYESRNKNSVA | WASTRES | QQGHRLPLS | Ctrl |
| 2.3 nM | 6/6 | RSSQSVLYDSRNKNSVA | DASARES | QQYQRLPLS | Ctrl |
| 16 nM | 6/6 | ILSQSVLMGMHTKNSVA | QAQMRFN | QQYHRLPLM | En_HC |
| 2.0 nM | 6/6 | TISQMTSQFSQSINNVA | EVSTREK | QQYDRLPLS | En_Gen |
| 26 nM | 6/6 | KSSQSVLYDSRNKNSVA | WASVRES | QQYHRLPLS | Ctrl |
| 2.8 nM | 6/6 | KLSQVTHSEKRNKNSIA | EMVTREV | QQYDRLPLS | En_HC |
| 9.8 nM | 6/6 | TISSSAQQESHNKNSVA | DLSVRGS | QQYHRLPLS | En_HC |
| 43 nM | 6/6 | KSSQDVLMESRNKNSVA | YASTRES | QQYHRLPLS | Ctrl |
| 13 nM | 6/6 | MLSTTKDYNYTAGNSVA | EVTEKCN | QQYKRLPLS | En_Gibbs |
| 5.2 nM | 6/6 | MFSQSVMYGSFMRNSVA | QTETREN | QQYDRLPLS | En_HC |
| 1.4 nM | 5/6 | SLMQFGGYESNAHNSIA | DLRTRES | QQYHRLPLS | En_HC |
| nd | 0/6 | KSSQSELYESRNKNSVA | WASTRES | QQYHRLPLP | Ctrl |
| 17 nM | 6/6 | KLLQNVMTEGRMRNNVA | HMTMRED | QQYWRLPLS | En_HC |
| 770 pM | 6/6 | KLSQSVLMESRNKNSVA | EASTRSS | QQYHRLPLS | GP_Gen |
| nd | 0/6 | KSSQSVLYESRNKNSVA | DASTRES | YQYKRLPLS | Ctrl |
| nd | 0/6 | KSIISVLYESRNKNSVA | WASTREV | QQYHQLPLS | Ctrl |
| 5.1 nM | 6/6 | MVNGIMDHLSKHTNNVA | ETTTREK | QQYDRLPLS | En_Gen |
| 690 pM | 6/6 | HISMSMNYLSRNKNSIA | EESTRED | QQYHRLPLS | En_HC |
| 1.3 nM | 6/6 | KSAYSEGYESANKNSVA | SASTRSS | QQYHRLPLS | GP_Gibbs |
| nd | 0/6 | KYSQSVGYESRNKNSVA | WASTRES | QQYHRYPLS | Ctrl |
| 860 pM | 6/6 | HQSPSVLYESRNKNSVA | NGSTREM | QQYHRLPLS | GP_HC |
| 5.8 nM | 6/6 | KLDISELYESRNWNSVA | NASTREE | QQYHRLPLS | GP_Gibbs |
| 970 pM | 6/6 | KSSQSWLGEDWNKNSVA | QASQRMS | QQYHRLPLS | GP_Gibbs |
| 590 pM | 6/6 | KLSQSVLYESGNKNSVA | HASTRED | QQYHRLPLS | GP_HC |
| 1.9 nM | 6/6 | KSSISMLYEERNDNSVA | NASQREH | QQYHRLPLS | GP_Gibbs |
| 3.4 nM | 6/6 | KLDYQADQYGVQCNNVA | HADIREP | QQYFKLPLN | En_Gibbs |
| 440 pM | 6/6 | KLSQSVLYESRNKNAVA | QASTRES | QQYHRLPLS | GP_Gen |
| 17 nM | 6/6 | KLSATYRYESQNKNSIA | EMSTRES | QCYHRLPLS | En_HC |
| 6.1 nM | 6/6 | VLHNNCSDYDMYRNSIA | DAQHREA | QQYYRLPFT | En_Gibbs |

A sequence measured in both rounds can read differently, since the two assays cover different ranges.
The authors' rule: three or more of the six replicates give a measured affinity, fewer mean a poor binder.
As a blank, each scFv also met three strains without target: over all light chain designs, 4% of these pairings were detected, typically at 430 nM and seldom below 38 nM.